# Source: US8653092B2, “Tetrahydro-pyrido-pyrimidine derivatives” (Novartis AG, priority 2010, dated 2014)
# Amino acid sequences for entries named in this document (tags omitted). A change or cut given only in a name is not applied to a line headed by its entry. Chains listed by the source or under a name are the forms on record and can include a tag or linker.
# UniProt O00329: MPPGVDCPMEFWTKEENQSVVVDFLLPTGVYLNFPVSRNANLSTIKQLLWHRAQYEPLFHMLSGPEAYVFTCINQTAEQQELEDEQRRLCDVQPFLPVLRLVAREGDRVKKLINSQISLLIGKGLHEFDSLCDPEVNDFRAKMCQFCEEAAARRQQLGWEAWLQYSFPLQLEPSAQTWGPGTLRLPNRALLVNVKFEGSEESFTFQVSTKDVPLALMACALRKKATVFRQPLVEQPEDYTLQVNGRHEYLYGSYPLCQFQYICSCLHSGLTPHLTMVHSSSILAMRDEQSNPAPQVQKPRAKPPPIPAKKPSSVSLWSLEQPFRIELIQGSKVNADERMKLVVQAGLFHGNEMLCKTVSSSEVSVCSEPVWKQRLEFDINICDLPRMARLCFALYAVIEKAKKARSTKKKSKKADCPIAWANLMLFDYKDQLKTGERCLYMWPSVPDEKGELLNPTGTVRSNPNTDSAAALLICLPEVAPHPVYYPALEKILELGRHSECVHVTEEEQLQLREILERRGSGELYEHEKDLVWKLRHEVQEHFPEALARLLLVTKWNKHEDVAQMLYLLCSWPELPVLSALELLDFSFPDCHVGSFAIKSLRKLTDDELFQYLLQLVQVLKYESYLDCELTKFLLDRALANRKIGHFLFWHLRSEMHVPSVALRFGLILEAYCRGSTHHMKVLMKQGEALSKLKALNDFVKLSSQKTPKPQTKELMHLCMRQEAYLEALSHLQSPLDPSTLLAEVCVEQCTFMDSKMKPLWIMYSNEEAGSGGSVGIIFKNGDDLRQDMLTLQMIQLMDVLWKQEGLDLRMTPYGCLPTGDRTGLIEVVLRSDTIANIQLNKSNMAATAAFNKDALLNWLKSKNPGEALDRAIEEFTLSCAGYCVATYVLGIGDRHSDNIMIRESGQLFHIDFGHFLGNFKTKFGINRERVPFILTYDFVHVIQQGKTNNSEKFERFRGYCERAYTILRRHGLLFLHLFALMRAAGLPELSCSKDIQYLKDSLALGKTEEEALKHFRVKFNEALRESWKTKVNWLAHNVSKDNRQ
# UniProt P42336, other isoform, or with tags, fused parts or gaps: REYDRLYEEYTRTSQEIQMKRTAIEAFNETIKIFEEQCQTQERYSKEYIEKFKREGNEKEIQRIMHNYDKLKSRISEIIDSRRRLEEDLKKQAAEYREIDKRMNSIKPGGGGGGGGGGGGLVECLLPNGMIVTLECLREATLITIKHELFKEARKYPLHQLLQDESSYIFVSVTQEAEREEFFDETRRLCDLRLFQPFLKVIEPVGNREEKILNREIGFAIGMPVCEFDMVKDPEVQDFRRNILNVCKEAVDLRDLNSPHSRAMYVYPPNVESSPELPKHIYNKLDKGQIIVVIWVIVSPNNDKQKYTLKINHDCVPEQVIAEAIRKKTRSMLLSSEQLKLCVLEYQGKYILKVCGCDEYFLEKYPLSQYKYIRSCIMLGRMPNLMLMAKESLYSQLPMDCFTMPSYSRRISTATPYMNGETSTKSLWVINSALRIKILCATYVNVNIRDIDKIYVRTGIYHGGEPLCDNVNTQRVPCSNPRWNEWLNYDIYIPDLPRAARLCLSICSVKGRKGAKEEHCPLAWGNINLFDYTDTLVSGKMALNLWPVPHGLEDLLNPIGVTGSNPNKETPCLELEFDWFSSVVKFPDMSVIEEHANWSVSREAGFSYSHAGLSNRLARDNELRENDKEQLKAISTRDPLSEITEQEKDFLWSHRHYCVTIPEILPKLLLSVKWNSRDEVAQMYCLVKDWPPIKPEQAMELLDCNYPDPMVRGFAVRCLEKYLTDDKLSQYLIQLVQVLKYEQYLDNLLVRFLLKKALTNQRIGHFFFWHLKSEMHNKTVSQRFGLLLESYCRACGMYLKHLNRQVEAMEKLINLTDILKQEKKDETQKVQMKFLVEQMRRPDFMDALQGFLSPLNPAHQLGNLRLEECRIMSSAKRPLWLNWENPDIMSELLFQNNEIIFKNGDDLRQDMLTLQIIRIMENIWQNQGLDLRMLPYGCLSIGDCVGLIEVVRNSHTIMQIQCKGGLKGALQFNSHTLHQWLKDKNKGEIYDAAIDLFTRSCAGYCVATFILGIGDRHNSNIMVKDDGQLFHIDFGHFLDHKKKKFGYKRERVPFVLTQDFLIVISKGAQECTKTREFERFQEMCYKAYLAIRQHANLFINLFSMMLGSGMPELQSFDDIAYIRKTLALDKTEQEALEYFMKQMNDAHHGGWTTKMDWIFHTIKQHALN
# Target: PI3K delta (Homo sapiens (Human), UniProt O00329)
# Assay: Enzymatic PI3K delta isoform inhibition (lipid kinase, Kinase-Glo luminescence)
# Type: biochemical
# Conditions: enzymatic assay
row,IC50 [nM],SMILES
1,15,"COc1ncc(N2CCc3ncnc(O[C@H]4CCN(C(=O)C5CCOCC5)C4)c3C2)cc1C [Example 1, {(S)-3-[6-(6-Methoxy-5-methyl-pyridin-3-yl)-5,6,7,8-tetrahydro-pyrido[4,3-d]pyrimidin-4-yloxy]-pyrrolidin-1-yl}-(tetrahydro-pyran-4-yl)-methanone]"
2,17,"COc1ncc(N2CCc3ncnc(N[C@H]4CCN(C(=O)C5CCOCC5)C4)c3C2)cc1C [Example 83, {(S)-3-[6-(6-Methoxy-5-methyl-pyridin-3-yl)-5,6,7,8-tetrahydro-pyrido[4,3-d]pyrimidin-4-ylamino]-pyrrolidin-1-yl}-(tetrahydro-pyran-4-yl)-methanone]"
3,21,"COc1ncc(N2CCc3ncnc(O[C@H]4CCN(C(=O)c5cnco5)C4)c3C2)cc1C(F)(F)F [Example 94, {(S)-3-[6-(6-Methoxy-5-trifluoromethyl-pyridin-3-yl)-5,6,7,8-tetrahydro-pyrido[4,3-d]pyrimidin-4-yloxy]-pyrrolidin-1-yl}-oxazol-5-yl-methanone]"

# Target: PI3K alpha (Homo sapiens (Human), UniProt P42336)
# Assay: Enzymatic PI3K alpha isoform inhibition (lipid kinase, Kinase-Glo luminescence)
# Type: biochemical
# Conditions: enzymatic assay
row,IC50 [nM],SMILES
1,54,"COc1ncc(N2CCc3ncnc(N[C@H]4CCN(C(=O)[C@H]5CC[C@@H](OC)CC5)C4)c3C2)cc1C(F)(F)F (single isomer, unassigned) [Example 73]"
2,113,"COc1ncc(N2CCc3ncnc(N[C@H]4CCN(C(=O)[C@H]5CC[C@H](OC)CC5)C4)c3C2)cc1C(F)(F)F (single isomer, unassigned) [Example 74]"
3,432,"COc1ncc(N2CCc3ncnc(N[C@H]4CCN(C(=O)C5CCOCC5)C4)c3C2)cc1C [Example 83, {(S)-3-[6-(6-Methoxy-5-methyl-pyridin-3-yl)-5,6,7,8-tetrahydro-pyrido[4,3-d]pyrimidin-4-ylamino]-pyrrolidin-1-yl}-(tetrahydro-pyran-4-yl)-methanone]"
4,569,"COc1ncc(N2CCc3ncnc(O[C@H]4CCN(C(=O)N5CCN(C)CC5)C4)c3C2)cc1C(F)(F)F [Example 85, {(S)-3-[6-(6-methoxy-5-trifluoromethyl-pyridin-3-yl)-5,6,7,8-tetrahydro-pyrido[4,3-d]pyrimidin-4-yloxy]-pyrrolidin-1-yl}-(4-methyl-piperazin-1-yl)-methanone]"
5,1990,"COC(=O)N1CC[C@H](Oc2ncnc3c2CN(c2cnc(OC)c(C#N)c2)CC3)C1 [Example 90, (S)-3-[6-(5-cyano-6-methoxy-pyridin-3-yl)-5,6,7,8-tetrahydro-pyrido[4,3-d]pyrimidin-4-yloxy]-pyrrolidine-1-carboxylic acid methyl ester]"

# Target: human phosphoinositide-3 kinase (PI3K) delta (Homo sapiens (Human), UniProt O00329)
# Assay: PI3K-mediated Akt 1/2 (S473) phosphorylation in Rat-1 cells (AlphaScreen SureFire)
# Type: cell-based
# Conditions: Rat-1 cells overexpressing myristoylated human PI3K delta, p-Akt (Ser473); read-out: Cell PI3Kδ/ IC50 [umol l − 1]
# Experimental: Rat-1 cells stably overexpressing a myristoylated form of the catalytic subunit of human phosphoinositide-3 kinase (PI3K) alpha, beta or delta were plated in 384-well plates at a density of 7500 (PI3K alpha), 6200 (PI3K beta), or 4000 (PI3K delta) cells in 30 ul complete growth medium (Dulbecco's modified Eagle's medium (DMEM high glucose) supplemented with 10% (v/v) fetal bovine serum, 1% (v/v) MEM non essential amino acids, 10 mM HEPES, 2 mM L-glutamine, 10 μg/mL puromycin and 1% (v/v) Penicillin/Streptomycin) and were incubated at […]/5% CO2/95% humidity for 24 h. Compounds were diluted in 384-well compound plates to obtain 8-point serial dilutions for 40 test compounds in 90% DMSO, as well as 4 reference compounds plus 16 high controls and 16 low (inhibited) controls. Predilution plates were prepared by dispensing pipetting 250 nl of compound solutions into 384-well polypropylen plates using a Hummingwell nanoliter dispensor. Compounds were prediluted by the addition of 49.75 ul complete growth medium. 10 ul of prediluted compound solution were transferred to the cell plate using a 384-well pipettor, resulting in a final DMSO concentration of 0.11%. […]
# For detection of p-AKT (Ser473), the SureFire® p-Akt 1/2 (Ser473) Assay Kit (PerkinElmer, U.S.A) was used. […] The plate was read on an AlphaScreen® compatible plate reader, using standard AlphaScreen® settings.
row,SMILES,IC50 [nM]
1,"CCC(=O)N1CC[C@H](Nc2ncnc3c2CN(c2cnc(OC)c(C(F)(F)F)c2)CC3)C1 [Example 67, 1-{(S)-3-[6-(6-Methoxy-5-trifluoromethyl-pyridin-3-yl)-5,6,7,8-tetrahydro-pyrido[4,3-d]pyrimidin-4-ylamino]-pyrrolidin-1-yl}-propan-1-one]",47
